{"sequences": {"note": "Chains of the proteins cited; added tags and fusions are not shown.", "UniProt Q99720, whole entry, looked up": "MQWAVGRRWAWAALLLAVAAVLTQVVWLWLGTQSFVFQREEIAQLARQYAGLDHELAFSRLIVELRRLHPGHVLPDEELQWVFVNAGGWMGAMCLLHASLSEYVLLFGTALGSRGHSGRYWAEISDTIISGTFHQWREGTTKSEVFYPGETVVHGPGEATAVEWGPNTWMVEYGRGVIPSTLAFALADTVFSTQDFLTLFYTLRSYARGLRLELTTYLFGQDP"}, "source": "ChEMBL document CHEMBL1127992", "about": "“Novel conformationally restricted aromatic piperidines as selective sigma receptor ligands” (Bioorg Med Chem Lett, 1994)", "data": [{"target": "Sigma non-opioid intracellular receptor 1 (Homo sapiens, UniProt Q99720)", "test": "Inhibition of [3H](+)-SKF-10047 binding to sigma receptor", "units": {"Ki": "nM"}, "values": [{"smiles": "CN(C(=O)/C=C/c1ccccc1)C1CCN(Cc2ccccc2)CC1.O=C(O)/C=C/C(=O)O", "Ki": 5}, {"smiles": "O=C(/C=C/c1ccccc1)NC1CCN(Cc2ccccc2)CC1.O=C(O)/C=C/C(=O)O", "Ki": 15}, {"smiles": "C(=C\\c1ccccc1)/CN(C/C=C/c1ccccc1)C1CCN(Cc2ccccc2)CC1.O=C(O)/C=C/C(=O)O", "Ki": 7}, {"smiles": "C(#Cc1ccccc1)CNC1CCN(Cc2ccccc2)CC1.O=C(O)/C=C/C(=O)O", "Ki": 2.5}, {"smiles": "CN(C/C=C/c1ccccc1)C1CCN(Cc2ccccc2)CC1.O=C(O)/C=C/C(=O)O", "Ki": 2.6}, {"smiles": "O=C(C#Cc1ccccc1)NC1CCN(Cc2ccccc2)CC1.O=C(O)/C=C/C(=O)O", "Ki": 8}, {"smiles": "CN(CC#Cc1ccccc1)C1CCN(Cc2ccccc2)CC1.O=C(O)/C=C/C(=O)O", "Ki": 5}, {"smiles": "C(=C\\c1ccccc1)/CNC1CCN(Cc2ccccc2)CC1.O=C(O)/C=C/C(=O)O", "Ki": 16}, {"smiles": "CN(C(=O)C#Cc1ccccc1)C1CCN(Cc2ccccc2)CC1.O=C(O)/C=C/C(=O)O", "Ki": 4}]}]}
